# Assay results published in patent US20240217990A1 (Gilead Sciences, Inc., priority 2021, published 2024).
# By UniProt entry, the sequences of proteins in these tests, tags left out. Residues count along the entry.
# UniProt Q9NYK1, 27-1049 limits assumed: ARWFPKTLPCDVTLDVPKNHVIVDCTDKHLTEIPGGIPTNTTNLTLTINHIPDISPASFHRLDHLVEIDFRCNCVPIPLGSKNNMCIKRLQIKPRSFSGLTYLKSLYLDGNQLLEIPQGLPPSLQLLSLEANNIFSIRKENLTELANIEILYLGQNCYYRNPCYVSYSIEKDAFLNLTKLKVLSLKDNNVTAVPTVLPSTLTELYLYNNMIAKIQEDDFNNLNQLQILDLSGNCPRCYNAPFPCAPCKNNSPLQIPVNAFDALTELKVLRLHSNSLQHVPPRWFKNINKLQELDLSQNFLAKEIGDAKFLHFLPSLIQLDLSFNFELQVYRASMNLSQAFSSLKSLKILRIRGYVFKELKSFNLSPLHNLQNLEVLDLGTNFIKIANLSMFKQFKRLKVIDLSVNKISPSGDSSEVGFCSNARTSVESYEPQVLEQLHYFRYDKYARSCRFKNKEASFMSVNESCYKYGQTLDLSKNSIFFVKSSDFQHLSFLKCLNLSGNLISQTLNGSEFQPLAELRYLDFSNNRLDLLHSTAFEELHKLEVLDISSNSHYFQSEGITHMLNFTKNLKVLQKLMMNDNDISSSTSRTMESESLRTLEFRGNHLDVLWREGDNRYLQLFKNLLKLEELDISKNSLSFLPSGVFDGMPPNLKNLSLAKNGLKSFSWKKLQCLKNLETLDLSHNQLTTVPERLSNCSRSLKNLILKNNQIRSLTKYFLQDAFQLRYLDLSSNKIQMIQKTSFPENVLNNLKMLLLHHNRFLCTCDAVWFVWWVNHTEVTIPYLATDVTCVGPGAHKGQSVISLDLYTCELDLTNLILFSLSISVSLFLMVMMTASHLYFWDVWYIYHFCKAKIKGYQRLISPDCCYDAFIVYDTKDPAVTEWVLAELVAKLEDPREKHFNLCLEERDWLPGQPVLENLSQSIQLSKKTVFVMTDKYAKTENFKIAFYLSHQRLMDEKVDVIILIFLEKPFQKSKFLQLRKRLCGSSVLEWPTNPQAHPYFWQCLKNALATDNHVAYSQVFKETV
# UniProt Q9NR97, 27-1041 limits assumed: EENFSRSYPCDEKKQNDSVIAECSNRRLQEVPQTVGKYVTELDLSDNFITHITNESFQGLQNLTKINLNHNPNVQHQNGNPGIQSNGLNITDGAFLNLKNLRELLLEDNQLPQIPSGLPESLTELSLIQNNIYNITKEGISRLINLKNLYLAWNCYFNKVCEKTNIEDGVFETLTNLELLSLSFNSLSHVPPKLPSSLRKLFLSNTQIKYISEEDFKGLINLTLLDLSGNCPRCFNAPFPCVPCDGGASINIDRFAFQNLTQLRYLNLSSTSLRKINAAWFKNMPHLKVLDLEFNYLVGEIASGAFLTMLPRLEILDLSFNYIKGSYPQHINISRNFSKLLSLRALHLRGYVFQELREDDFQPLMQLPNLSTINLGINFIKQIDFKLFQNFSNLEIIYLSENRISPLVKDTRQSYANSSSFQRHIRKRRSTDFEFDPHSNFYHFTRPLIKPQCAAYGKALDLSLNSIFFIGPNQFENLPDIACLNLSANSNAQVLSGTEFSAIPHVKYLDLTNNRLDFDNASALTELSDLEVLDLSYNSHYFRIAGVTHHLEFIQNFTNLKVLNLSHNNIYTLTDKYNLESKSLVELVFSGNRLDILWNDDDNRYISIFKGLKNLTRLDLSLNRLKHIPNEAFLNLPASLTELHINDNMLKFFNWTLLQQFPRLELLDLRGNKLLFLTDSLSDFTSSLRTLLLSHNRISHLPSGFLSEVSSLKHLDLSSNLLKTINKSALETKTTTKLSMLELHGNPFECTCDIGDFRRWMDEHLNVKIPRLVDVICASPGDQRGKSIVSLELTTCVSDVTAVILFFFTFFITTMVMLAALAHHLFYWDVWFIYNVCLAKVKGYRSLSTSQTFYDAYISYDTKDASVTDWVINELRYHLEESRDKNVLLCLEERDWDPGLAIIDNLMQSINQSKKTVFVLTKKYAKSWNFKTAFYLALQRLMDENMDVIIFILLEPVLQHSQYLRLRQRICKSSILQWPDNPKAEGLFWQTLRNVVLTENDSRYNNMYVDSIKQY
# What was measured:
# TLR7 = TLR7 (Homo sapiens, UniProt Q9NYK1); experiment: TLR7 human PBMC cell-based assay (antagonist, GS-986 stimulated cytokine release); conditions: read-out: TLR-7 EC50; human PBMCs; TLR7 agonist GS-986 400 nM, 6 hours; cytokines (IL-6 and IFNα) in supernatant
# Text: (§1) Human peripheral blood mononuclear cells (PBMCs) consist of lymphocytes, monocytes and dendritic cells that express TLR7, TLR8 and TLR9. These cells respond to TLR7, TLR8 and TLR9 ligand stimulation and produce cytokines and chemokines in vitro and in vivo. Human PBMCs are therefore suitable to be used in a cell-based assay to assess the in vitro potency of a TLR 7, 8, and/or 9 antagonist. The result is expected to be more translatable to the pharmacodynamics response in vivo than cell line-based assays.
# (§2) Cryopreserved human PBMCs from healthy donors were thawed and resuspended in RPMI-1640 media with L-glutamine (Corning) supplemented with 10% Fetal Bovine Serum (Hyclone) and 1× Penicillin-Streptomycin (Corning). After counting, the cell density was adjusted to 2 million cells/ml and incubated for 1 hour at 37° C., 5% CO2 for recovery. […] The level of cytokines (IL-6 and IFNα) in the supernatant was measured by electrochemiluminescence immunoassays (Mesoscale Discovery) following manufacturer's recommended protocols. The level of cytokine measured was plotted against the test antagonist concentration and fitted to a sigmoidal function to determine the EC50, which are shown below in Table 11.
# TLR8 = TLR8 (Homo sapiens, UniProt Q9NR97); experiment: TLR8 human PBMC cell-based assay (antagonist, Compound A stimulated cytokine release); conditions: read-out: TLR-8 EC50; human PBMCs; TLR8 agonist Compound A 800 nM, 6 hours; cytokines (TNFa and IL 12p40) in supernatant
# Text: as §1
# as §2, with “1X” for “1×”, “(TNFa” for “(IL-6”, “IL 12p40)” for “IFNα)”, “the” for “the test”
smiles,measurement,setting,value
Cc1cc(-c2[nH]c3cc(C4CCN(C(=O)C5CN(C)C5)CC4)sc3c2C(C)C)cn2ncnc12,EC50,TLR7,27.5 nM
same,EC50,TLR8,274 nM
